Drawing on PMC3437384, this text covers stoichiometry N and dH for two substances.

This assay deals with cardiac troponin I (cTnI), rat wild type (rat) (UniProt P23693). Put plainly: ITC. Background: In ITC the heat of successive injections is recorded.

On to “cardiac troponin C L48Q variant, cTnC(L48Q) (from UniProt Q4PP99 1-161) (natural protein)”, for which the stoichiometry N (usually the number of molecules, sites or subunits per partner or assembly) was determined as 1.
In the case of “cardiac troponin C (cTnC), rat wild type (from UniProt Q4PP99 1-161) (natural protein)”, the dH was -16.1 kJ/mol and the stoichiometry N is 1.
